{"source": "patent US10927418B2", "about": "“Assays and methods for selecting a treatment regimen for a subject with leukemia” (CELATOR PHARMACEUTICALS, INC., priority 2015, dated 2021)", "type_in_all_cases": "cell-based", "key": {"[1]": {"test_system": "MOLM-14 cells", "assay": "Synergy of CPX-351 with FLT-3 inhibitor, Chou-Talalay algorithm"}, "[2]": {"test_system": "KG-1, ME-1, MOLM-13 and MOLM-14", "assay": "Synergy of CPX-351 with FLT-3 inhibitor, EOBA algorithm", "conditions": "CPX-351 precedes FLT-3 inhibitor or simultaneous; certain combinations"}, "[3]": {"test_system": "GDM-1 cells", "assay": "Synergy of CPX-351 with FLT-3 inhibitor, Chou-Talalay algorithm", "conditions": "three protocols"}}, "data": [{"compound": "CC(C)(C)c1cc(NC(=O)Nc2ccc(-c3cn4c(n3)sc3cc(OCCN5CCOCC5)ccc34)cc2)no1", "note": "[quizartinib]", "values": [{"measurement": "synergy with CPX-351 (combination index)", "setting": "[1]; CPX-351 concomitantly with or before FLT-3 inhibitor", "value": "high number of wells that show synergy"}, {"measurement": "synergy with CPX-351 (combination index)", "setting": "[1]; FLT-3 inhibitor prior to CPX-351", "value": "more antagonistic results"}, {"measurement": "synergy with CPX-351 (EOBA)", "setting": "[2]", "value": "high synergy"}, {"measurement": "synergy with CPX-351 (combination index), difference between protocols", "setting": "[3]", "value": "not significantly different"}]}]}
